Assay outcomes from PubChem.
miR122 inh = miR-122 Renilla sensor signal increase in Huh7, primary screen, miR-122 inhibitor project, cell-based, single point, plate reader; activation (reporter increase), % at 12.5 µM; AID 602342, 2012; Huh7 miR-122 Renilla luciferase sensor, 48 h; neutral wells = 0, positive control = 100; actives 0.3% (n = 340,000);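 active = mean replicate activation score at least 90 and every replicate individually at or above 90; inconclusive = only one of the two criteria met; inactive = neither criterion met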;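 note: higher luciferase means less miR-122 activity so hits act as miR-122 inhibitors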
Wnt act = Wnt/beta-catenin pathway activators, primary screen, cell-based, plate reader, single point; actives 1.2% (n = 300,000); activation, % at 9.35 µM; AID 743398, 2014; Wnt/beta-catenin reporter cell assay, activator; in the data active = activation above about 30%, passing the limit was not always enough; inconclusive = no clear call, values can overlap the other calls
Yeast UUG start = yeast start codon fidelity modulation; activity score, % at 18.7 µM; actives 0.13% (n = 350,000); S. cerevisiae UUG-firefly luciferase reporter, luminescence/redox ratio; AID 602363;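 active means replicate mean at a twofold rise or more, about +100% in these data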;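 further: firefly luciferase made from a UUG start codon reports start codon fidelity; reporter light over untreated wells divided by growth signal over untreated wells; some hits fall short of that in this replicate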
esBAF inh = Bmi1 luciferase reporter increase in mESCs, primary screen, esBAF inhibitor project, mouse ES cells, Bmi1 luciferase knock-in, single point; 24 h; 100% = twice the neutral-well signal; reporter increase, % at 12.5 µM; actives 2% (n = 350,000); AID 602393, 2012; in the data active = activation above about 40%; inconclusive = no clear call, values can overlap the other calls;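 note: a rise in the Bmi1 reporter signal indicates esBAF inhibition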
MITF act = activators of MITF-driven TRPM1 promoter reporter, primary screen, cell-based, SK-MEL-5, luciferase, single point. activation, % at 12.5 µM. SK-MEL-5 TRPM1-promoter luciferase, 24 h; % of positive control, neutral wells = 0. AID 588334, 2011. actives 0.75% (n = 300,000);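 active = mean activation of at least 80% with every replicate also reaching 80%; inconclusive = mean reaches 80% but some replicate falls short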
PglD inh = C. jejuni PglD acetyltransferase inhibitors, primary screen, biochemical, DTNB colorimetric, single point; inhibition, % at 12.5 µM; UDP-N-acetylbacillosamine N-acetyltransferase PglD (Campylobacter jejuni); actives 0.098% (n = 360,000); purified PglD enzyme, DTNB colorimetric CoA detection; in the data active = inhibition above about 16%, passing the limit was not always enough; inconclusive = no clear call, values can overlap the other calls
A number is an active result; – = inactive; ? = inconclusive; · = no result given. Only some compounds are listed: those with a hit (about 2.8% of all), similar ones and a draw of the others.

SMILES	miR122 inh	Wnt act	Yeast UUG start	esBAF inh	MITF act	PglD inh
Nc1ccccc1SC(CC(=O)c1ccccc1)c1ccc([N+](=O)[O-])cc1 (stereo not drawn)	–	80	–	–	·	–
Nc1ccccc1SC(CC(=O)c1ccccc1)c1cccc([N+](=O)[O-])c1 (stereo not drawn)	–	–	–	?	·	–
COc1ccc(C(CC(=O)c2ccc(O)cc2)S(=O)(=O)c2ccc(C)cc2)cc1 (stereo not drawn)	–	–	–	–	86	–
COc1ccc(C(CC(=O)c2ccc(C)cc2)Nc2ccc([N+](=O)[O-])cc2)cc1 (stereo not drawn)	·	–	·	·	–	·
COc1ccc(C(=O)CCS(=O)(=O)c2ccc(C)cc2)cc1	·	–	–	–	–	–
C[C@H]1CN([C@@H](C)CO)C(=O)c2cc(-c3cccc(F)c3)cnc2O[C@H]1CN(C)C(=O)Nc1cc(F)ccc1F	–	·	–	–	·	–
C[C@H]1CN([C@@H](C)CO)C(=O)c2cc(/C=C/c3ccccc3)cnc2O[C@H]1CN(C)C	–	·	–	–	·	–
Cc1ccc(-c2cc(-c3ccccc3)no2)c(O)c1	–	·	–	·	–	–
Cc1ccc(O)c(-c2cc(-c3ccc(F)cc3)no2)c1	–	44	–	–	–	–
COc1ccccc1NC(=O)N[C@H]1CC[C@@H](CCNS(=O)(=O)c2ccc(F)cc2)O[C@H]1CO	·	·	–	–	·	–
Cc1cc(NC(=O)CSc2nc3c(sc4ccccc43)c(=O)n2CCCN2CCOCC2)n[nH]1	178	–	–	–	·	–
CC12CCC(=O)CC1CCC1C2CCC2(C)C1CCC2(O)C(=O)CO (stereo not drawn)	–	–	–	–	–	–
CC1(CCC(=O)O)C(=O)CCC2C1CCC1(C)C2CCC1(C)O (stereo not drawn)	–	33	–	–	–	–
C[C@H]1CN([C@@H](C)CO)C(=O)CCCn2nncc2CO[C@@H]1CN(C)C(=O)Nc1cccc(C(F)(F)F)c1	–	·	–	–	·	–
COc1ccc(NC(=O)c2cc(-c3cccs3)on2)cc1OC	–	·	·	–	–	·
CCc1ccc(NC(=O)c2cc(-c3ccc(F)cc3)on2)cc1	–	–	–	–	–	–
Cc1ccc(NC(=O)c2cc(-c3cccs3)on2)cc1C	–	39	–	52	99	–
CCc1ccc(NC(=O)c2cc(-c3cccs3)on2)cc1	–	–	–	–	94	–
CCN(CC)C(=S)SCC(=O)c1ccc(Br)cc1	–	–	–	83	–	–
CCn1c(CNC(C)=O)nnc1SCC(=O)c1ccc(Br)cc1	–	·	–	–	–	–
CN(C)C(=O)C[C@H]1CC[C@@H]2[C@H](COC[C@H](O)CN2CC2CCCCC2)O1	–	·	–	–	·	–
c1ccc2c(c1)ccc1nnnn12	168	–	–	–	–	–
C(=N\Nc1nc2ccccc2[nH]1)/c1ccc2c(c1)OCO2	·	–	·	·	116	·
CC(/C=N/Nc1nc(C)cc(=O)[nH]1)=C\c1ccccc1	–	–	–	–	–	–
CC(/C=N/Nc1nc2ccccc2[nH]1)=C\c1ccccc1	·	53	·	·	–	·
SMILES	miR122 inh	Wnt act	Yeast UUG start	esBAF inh	MITF act	PglD inh
Clc1ccccc1N/N=C/c1ccc2c(c1)OCO2	–	·	–	78	–	–
COc1cc(/C=N/Nc2nc3ccccc3[nH]2)ccc1O	–	–	–	47	–	–
C(=N\Nc1nc2ccccc2s1)/c1ccc2c(c1)OCO2	·	–	·	·	–	·
Cc1ccc(-c2ccc([C@@H]3[C@@H](CO)N4CCCCN(S(=O)(=O)c5cccc(C)c5)C[C@H]34)cc2)cc1	–	·	–	·	·	–
COc1cccc(/C=N/Nc2nc3ccccc3[nH]2)c1OC	·	–	·	·	·	·
COc1cc(/C=N/Nc2snc(SC)c2C#N)ccc1O	–	·	–	60	–	–
COc1cc(/C=N/Nc2nc(C)cc(C)n2)ccc1O	–	–	–	–	·	–
COc1cccc(/C=N/Nc2nc3ccccc3[nH]2)c1O	–	–	–	62	–	–
Clc1ccc(-c2cc3ccccc3[nH]2)cc1	–	42	–	81	·	–
Cc1ccc(-c2cc(=O)c3ccccc3[nH]2)cc1	–	–	–	–	–	–
COc1cc(CO)ccc1OCc1ccc(Cl)nc1	–	36	–	57	·	–
COc1ccccc1CNC(=O)C[C@H]1C[C@H]2c3cc(NC(=O)c4cccnc4)ccc3O[C@H]2[C@H](CO)O1	–	·	·	–	·	–
COc1ccc(OC)c(-c2csc(NC(=O)Cc3ccccc3F)n2)c1	117	–	–	–	–	–
Cc1ccc(-c2csc(NC(=O)CSC3=NCCS3)n2)cc1	–	–	–	45	·	–
Nc1nc(-c2ccc3c(c2)OCCO3)cs1	·	·	–	51	?	–
CCCC(=O)Nc1nc(-c2ccc3c(c2)OCCO3)cs1	–	–	–	–	91	–
CSCC(=O)Nc1nc(-c2ccc3c(c2)OCCO3)cs1	·	–	·	·	–	·
C[C@@H]1CN([C@@H](C)CO)C(=O)c2cc(C3=CCCC3)cnc2O[C@@H]1CN(C)C(=O)c1cccnc1	–	·	–	–	·	–
CCCC(=O)Nc1nc(-c2ccc(OC)cc2)cs1	–	·	–	68	–	–
COc1ccc(-c2csc(NC(=O)CSc3nc(SC)ns3)n2)cc1	–	–	·	67	–	·
COc1ccc(CC(=O)Nc2nc(-c3ccncc3)cs2)cc1	·	–	·	·	–	·
CN1CCN(C(=O)C2CCCN(S(=O)(=O)c3ccc(F)cc3)C2)CC1 (stereo not drawn)	·	–	·	·	–	·
O=C(C1CCCN(S(=O)(=O)c2ccc(F)cc2)C1)N1CCOCC1 (stereo not drawn)	–	43	–	55	–	–
C[C@@H]1CCCCO[C@H](CN(C)C(=O)CCC(F)(F)F)[C@@H](C)CN([C@@H](C)CO)C(=O)c2cc(NC(=O)CCCCCC(=O)Nc3ccccc3N)ccc2O1	–	·	–	–	·	–
CO[C@H]1CN(C)C(=O)c2cc(NC(=O)c3ccc(F)cc3)ccc2OC[C@H](C)N(C(=O)CN(C)C)C[C@@H]1C	·	·	–	–	·	–
O=C(NCc1nc(-c2ccccc2)no1)c1cccs1	–	–	–	–	–	–
Cc1cc(NC(=O)c2ccc(NC(=O)c3cccs3)cc2)no1	–	–	–	–	–	–
O=C(Nc1nc(-c2ccccc2)ns1)c1cccs1	–	–	–	44	–	–
CCn1c(CCNC(=O)c2cccs2)nnc1SCC(=O)Nc1cccc(Cl)c1	·	–	·	·	·	·
CC(C)(C)c1csc(NC(=O)c2cccs2)n1	–	·	–	103	–	–
